22 molecules from patent US20210300900A1, “OGA INHIBITOR COMPOUNDS” (Janssen Pharmaceutica NV, priority 2018, published 2021) can be followed below.

Sequences of proteins named here, by UniProt entry; tags and fusion partners are left off.
UniProt O60502, whole entry: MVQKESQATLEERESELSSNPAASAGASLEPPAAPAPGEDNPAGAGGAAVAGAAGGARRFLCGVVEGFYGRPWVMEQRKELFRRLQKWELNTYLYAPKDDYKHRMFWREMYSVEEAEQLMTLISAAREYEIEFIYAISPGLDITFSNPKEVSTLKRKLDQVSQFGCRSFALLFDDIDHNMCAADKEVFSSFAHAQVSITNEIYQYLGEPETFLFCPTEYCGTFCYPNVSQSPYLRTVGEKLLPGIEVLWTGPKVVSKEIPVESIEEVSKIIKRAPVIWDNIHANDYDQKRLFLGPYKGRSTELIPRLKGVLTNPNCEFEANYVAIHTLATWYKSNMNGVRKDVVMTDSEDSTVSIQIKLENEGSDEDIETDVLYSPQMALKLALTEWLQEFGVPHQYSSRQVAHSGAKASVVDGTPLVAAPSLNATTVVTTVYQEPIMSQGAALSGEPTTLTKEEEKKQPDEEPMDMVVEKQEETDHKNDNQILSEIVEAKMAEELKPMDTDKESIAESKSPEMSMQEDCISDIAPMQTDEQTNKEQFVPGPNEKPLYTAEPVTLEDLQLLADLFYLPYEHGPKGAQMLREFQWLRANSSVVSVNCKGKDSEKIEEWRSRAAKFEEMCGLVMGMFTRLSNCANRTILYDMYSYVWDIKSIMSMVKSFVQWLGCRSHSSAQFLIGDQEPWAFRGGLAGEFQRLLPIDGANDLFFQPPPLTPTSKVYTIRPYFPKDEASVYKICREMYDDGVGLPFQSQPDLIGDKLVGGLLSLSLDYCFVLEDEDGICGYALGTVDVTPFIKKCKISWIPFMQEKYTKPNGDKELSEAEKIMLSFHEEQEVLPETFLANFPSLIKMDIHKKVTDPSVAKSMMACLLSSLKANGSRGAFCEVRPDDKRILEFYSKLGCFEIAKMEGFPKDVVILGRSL

Experiment [1] concerns the target recombinant human Meningioma Expressed Antigen 5 (MGEA5), also referred to as O-GcNAcase (OGA) (Homo sapiens, UniProt O60502). The experiment in a line: OGA biochemical assay (inhibition of FM-GlcNAc hydrolysis, fluorescence). The settings on record: FM-GlcNAc substrate. The source says: The assay is based on the inhibition of the hydrolysis of fluorescein mono-β-D-N-Acetyl-Glucosamine (FM-GlcNAc) (Mariappa et al. 2015, Biochem J 470:255) by the recombinant human Meningioma Expressed Antigen 5 (MGEA5), also referred to as O-GcNAcase (OGA). The hydrolysis FM-GlcNAc (Marker Gene technologies, cat #M1485) results in the formation of B-D-N-glucosamineacetate and fluorescein. The fluorescence of the latter can be measured at excitation wavelength 485 nm and emission wavelength 538 nm. An increase in enzyme activity results in an increase in fluorescence signal. Full length OGA enzyme was purchased at OnGene (cat #TP322411). The enzyme was stored in 25 mM Tris.HCl, pH 7.3, 100 mM glycine, 10% glycerol at −20° C. Thiamet G and GlcNAcStatin were tested as reference compounds (Yuzwa et al. 2008 Nature Chemical Biology 4:483; Yuzwa et al. 2012 Nature Chemical Biology 8:393). The assay was performed in 200 mM Citrate/phosphate buffer supplemented with 0.005% Tween-20. 35.6 g Na2HPO4 2H2O (Sigma, #C0759) were dissolved in 1 L water to obtain a 200 mM solution. 19.2 g citric acid (Merck, #1.06580) was dissolved in 1 L water to obtain a 100 mM solution. pH of the sodiumphosphate solution was adjusted with the citric acid solution to 7.2. The buffer to stop the reaction consists of a 500 mM Carbonate buffer, pH 11.0. 734 mg FM-GlcNAc were dissolved in 5.48 mL DMSO to obtain a 250 mM solution and was stored at −20° C. OGA was used at a 2 nM concentration and FM-GlcNAc at a 100 uM final concentration. Dilutions were prepared in assay buffer.
50 nl of a compound dissolved in DMSO was dispensed on Black Proxiplate TM 384 Plus Assay plates (Perkin Elmer, #6008269) and 3 μl fl-OGA enzyme mix added subsequently. Plates were pre-incubated for 60 min at room temperature and then 2 μl FM-GlcNAc substrate mix added. […] Plates were briefly centrifuged for 1 min at 1000 rpm and incubate at room temperature for 6 h. To stop the reaction 5 μl STOP buffer were added and plates centrifuge again 1 min at 1000 rpm. Fluorescence was quantified in the Thermo Scientific Fluoroskan Ascent or the PerkinElmer EnVision with excitation wavelength 485 nm and emission wavelength 538 nm.
For analysis a best-fit curve is fitted by a minimum sum of squares method. From this an IC50 value and Hill coefficient was obtained. High control (no inhibitor) and low control (saturating concentrations of standard inhibitor) were used to define the minimum and maximum values.

Experiment [2] has as its target OGA (Homo sapiens, UniProt O60502). The experiment in a line: OGA cellular assay (ICC detection of O-GlcNAcylated proteins in HEK293 cells inducible for P301L mutant human Tau). The settings on record: 6 hours incubation; for Cellular Emax (%): maximum = Thiamet G 200 uM. The procedure:
HEK293 cells inducible for P301L mutant human Tau (isoform 2N4R) were established at Janssen. Thiamet-G was used for both plate validation (high control) and as reference compound (reference EC50 assay validation). OGA inhibition is evaluated through the immunocytochemical (ICC) detection of O-GlcNAcylated proteins by the use of a monoclonal antibody (CTD110.6; Cell Signaling, #9875) detecting O-GlcNAcylated residues as previously described (Dorfmueller et al. 2010 Chemistry & biology, 17:1250). Inhibition of OGA will result in an increase of O-GlcNAcylated protein levels resulting in an increased signal in the experiment. Cell nuclei are stained with Hoechst to give a cell culture quality control and a rough estimate of immediate compounds toxicity, if any. ICC pictures are imaged with a Perkin Elmer Opera Phenix plate microscope and quantified with the provided software Perkin Elmer Harmony 4.1.
Cells were propagated in DMEM high Glucose (Sigma, #D5796) following standard procedures. 2 days before the cell assay cells are split, counted and seeded in Poly-D-Lysine (PDL) coated 96-wells (Greiner, #655946) plate at a cell density of 12,000 cells per cm^2 (4,000 cells per well) in 100 μl of Assay Medium (Low Glucose medium is used to reduce basal levels of GlcNAcylation) (Park et al. 2014 The Journal of biological chemistry 289:13519). At the day of compound test medium from assay plates was removed and replenished with 90 μl of fresh Assay Medium. 10 μl of compounds at a 10 fold final concentration were added to the wells. Plates were centrifuged shortly before incubation in the cell incubator for 6 hours. DMSO concentration was set to 0.2%. Medium is discarded by applying vacuum. For staining of cells medium was removed and cells washed once with 100 μl D-PBS (Sigma, #D8537). From next step onwards unless other stated assay volume was always 50 μl and incubation was performed without agitation and at room temperature. Cells were fixed in 50 μl of a 4% paraformaldehyde (PFA, Alpha aesar, #043368) PBS solution for 15 minutes at room temperature. […] Before analysis samples were washed 2 times manually for 5 minutes in ICC base buffer.
Imaging is performed using Perkin Elmer Phenix Opera using a water 20×objective and recording 9 fields per well. Intensity readout at 488 nm is used as a measure of O-GlcNAcylation level of total proteins in wells. To assess potential toxicity of compounds nuclei were counted using the Hoechst staining. IC50-values are calculated using parametric non-linear regression model fitting. As a maximum inhibition Thiamet G at a 200 uM concentration is present on each plate. In addition, a concentration response of Thiamet G is calculated on each plate.

[3] abbreviates: tested form: 2HCl, listed as 88.
[4] abbreviates: tested form: 2HCl, listed as 89.

Some results are limits rather than exact numbers.

`CC(=O)Nc1cc([C@H](C)N2CC[C@H](Cc3ncc(C)nc3C)C2)n[nH]1`: in experiment [1], the “Enzymatic Emax (%)” value is on record as 20% and the “Enzymatic hOGA; pIC50” value was below 5.
As to `COc1ccc(C[C@H]2CCN([C@H](C)c3cccc(OC)n3)C2)cn1`, in experiment [1], the “Enzymatic Emax (%)” value amounted to 43% and the “Enzymatic hOGA; pIC50” value is listed as below 5.
For `COc1ccc(F)c(C(C)N2CC[C@H](Cc3ncc(C)nc3C)C2)n1` (single isomer, unassigned), in experiment [1] (listed as 114), the “Enzymatic Emax (%)” value was 9% and the “Enzymatic hOGA; pIC50” value is reported as below 5. In experiment [1] (listed as 115), the “Enzymatic Emax (%)” value came to 88% and the “Enzymatic hOGA; pIC50” value worked out at 5.72.
Consider `CC(=O)Nc1cncc(C(C)N2CCC[C@H](Cc3cc(C)nc(C)c3)C2)c1` (stereo partly shown), for which, in experiment [1], the “Enzymatic Emax (%)” value came out at 102% and the “Enzymatic hOGA; pIC50” value is 7.87. In experiment [2], the “Cellular hOGA; pEC50” value is given as below 6 and the “Cellular Emax (%)” value was found to be 23%.
On to `CC(=O)Nc1cc([C@@H](C)N2CC[C@H](Cc3ncc(C)nc3C)C2)n[nH]1`, for which, in experiment [1], the “Enzymatic Emax (%)” value was determined as 97% and the “Enzymatic hOGA; pIC50” value is recorded as 6.54.
In the same order, the values of `COc1cc(C[C@H]2CCCN([C@H](C)c3cc(NC(C)=O)[nH]n3)C2)cc(C)n1` are 85% and 5.71.
Regarding `CNC(=O)c1cncc(CN2CCC[C@H](Cc3cc(C)nc(C)c3)C2)c1`, in experiment [1] (tested form: 2HCl), the “Enzymatic Emax (%)” value is 98% and the “Enzymatic hOGA; pIC50” value came out at 6.58. In addition, in experiment [2] (tested form: 2HCl), the “Cellular Emax (%)” value came to 11% and the “Cellular hOGA; pEC50” value was below 6.
Turning to `Cc1cc(C[C@H]2CCCN(C(C)c3cccc(OC(C)C)n3)C2)cc(C)n1` (stereo partly shown), in experiment [1], the “Enzymatic Emax (%)” value is 51% and the “Enzymatic hOGA; pIC50” value came to 5.02.
Regarding `CC(=O)Nc1cc(C(C)N2CCC[C@H](Cc3cc(C)nc(C)c3)C2)nn1C` (stereo partly shown), in experiment [1], the “Enzymatic Emax (%)” value amounted to 102% and the “Enzymatic hOGA; pIC50” value came to 7.58. Also, in experiment [2], the “Cellular hOGA; pEC50” value is listed as below 6 and the “Cellular Emax (%)” value was determined as 13%.
Turning to `COc1ccc(F)c(C(C)N2CC[C@H](Cc3ncc(F)cc3F)C2)n1` (single isomer, unassigned), the “Enzymatic Emax (%)” value in experiment [1] (listed as 107) is recorded as 48%; in experiment [1] (listed as 108), 6%. The “Enzymatic hOGA; pIC50” value in experiment [1] (listed as 107) is reported as 5.03; in experiment [1] (listed as 108), below 5.
Consider `COc1ccc(C(C)N2CCC[C@H](Cc3cc(C)nc(C)c3)C2)nc1` (stereo partly shown), for which, in experiment [1], the “Enzymatic Emax (%)” value came out at 101% and the “Enzymatic hOGA; pIC50” value came out at 6.79.
In the case of `COc1cc(NCC2CCCN(C(C)c3cccc(OC)n3)C2)cc(C)n1` (single isomer, unassigned), in experiment [1] (setting [3]), the “Enzymatic Emax (%)” value came to 32% and the “Enzymatic hOGA; pIC50” value is reported as below 5. Moreover, in experiment [1] (setting [4]), the “Enzymatic Emax (%)” value is recorded as 102% and the “Enzymatic hOGA; pIC50” value was determined as 7.6. In addition, in experiment [2] (tested form: 2HCl), the “Cellular Emax (%)” value is 73% and the “Cellular hOGA; pEC50” value worked out at 6.85.
`COc1cccc([C@H](C)N2CCC[C@H](CNc3cc(C)nc(C)c3)C2)n1` (relative stereo): in experiment [1] (tested form: 2HCl), the “Enzymatic Emax (%)” value turned out to be 102% and the “Enzymatic hOGA; pIC50” value was found to be 7.39. Moreover, in experiment [2] (tested form: 2HCl), the “Cellular Emax (%)” value is 74% and the “Cellular hOGA; pEC50” value came to 7.1.
Turning to `CC(=O)Nc1cncc([C@@H](C)N2CCC[C@H](Cc3cc(C)nc(C)c3)C2)c1`, in experiment [1], the “Enzymatic Emax (%)” value is given as 67% and the “Enzymatic hOGA; pIC50” value came to 5.3.
With `COc1cccc(C(C)N2CCC(Cc3ccc(F)nc3)C2)n1` (single isomer, unassigned), the “Enzymatic hOGA; pIC50” value in experiment [1] is below 5. Also, the “Enzymatic Emax (%)” value in experiment [1] (listed as 156) amounted to 31%; in experiment [1] (listed as 157) it was 16%.
With `CC(=O)Nc1cc([C@H](C)N2CCC[C@H](Cc3cc(C)nc(C)c3)C2)nn1C`, in experiment [1], the “Enzymatic Emax (%)” value was 101% and the “Enzymatic hOGA; pIC50” value was determined as 7.91.
For the molecule `CC(=O)Nc1cc(C(C)N2CC[C@@H](Cc3cc(C)nc(C)c3)C2)n[nH]1` (single isomer, unassigned), in experiment [1] (listed as 105), the “Enzymatic Emax (%)” value stood at 89% and the “Enzymatic hOGA; pIC50” value turned out to be 5.94. Besides, in experiment [1] (listed as 106), the “Enzymatic Emax (%)” value is reported as 29% and the “Enzymatic hOGA; pIC50” value is below 5.
For the molecule `CC(=O)Nc1cncc([C@H](C)N2CCC[C@H](Cc3cc(C)nc(C)c3)C2)c1`, in experiment [1], the “Enzymatic Emax (%)” value is listed as 101% and the “Enzymatic hOGA; pIC50” value was determined as 8.08. In experiment [2], the “Cellular hOGA; pEC50” value is on record as 6 and the “Cellular Emax (%)” value amounted to 40%.
With `COc1ccc(C[C@H]2CCN(C(C)c3cccc(OC)n3)C2)cn1` (stereo partly shown), in experiment [1], the “Enzymatic Emax (%)” value came to 39% and the “Enzymatic hOGA; pIC50” value is given as below 5.
For the molecule `CC(=O)Nc1cc([C@@H](C)N2CCC[C@H](Cc3cc(C)nc(C)c3)C2)nn1C`, in experiment [1], the “Enzymatic Emax (%)” value was determined as 58% and the “Enzymatic hOGA; pIC50” value amounted to 5.16.
In the case of `COc1cccc([C@@H](C)N2CCC[C@H](CNc3cc(C)nc(C)c3)C2)n1` (relative stereo), in experiment [1] (tested form: 2HCl), the “Enzymatic Emax (%)” value is 35% and the “Enzymatic hOGA; pIC50” value was below 5.
`COc1cc(C[C@H]2CCCN([C@@H](C)c3cc(NC(C)=O)[nH]n3)C2)cc(C)n1`: in experiment [1], the “Enzymatic Emax (%)” value came out at 104% and the “Enzymatic hOGA; pIC50” value stood at 8.12. For the same molecule, in experiment [2], the “Cellular hOGA; pEC50” value came out at 7.09 and the “Cellular Emax (%)” value is 86%.
